Legend:
FMR1-KO mice [1] = test: Measurement of corticosterone in serum; type: in vivo, mouse; details: FMR1-KO mice vs WT controls under the same treatment
Description: FIG. 3. Concentration of corticosterone in mouse serum (ng/ml).

FMR1-KO mice [2] = test: Level of lipid peroxidation (TBARS) in cerebral membranes; type: in vivo, mouse; details: FMR1-KO vs WT under treatment; tianeptine: both genotypes vs saline control
Description: FIG. 4. Concentration of TBARS in mouse cerebral membranes (nmol/mg protein).

CN1c2ccccc2C(NCCCCCCC(=O)O)c2ccc(Cl)cc2S1(=O)=O (centres unmarked) [Tianeptine]
Concentration of corticosterone in serum (FMR1-KO mice [1]): not capable of equalling the levels of this hormone | Levels of TBARS in cerebral membranes (FMR1-KO mice [2]): an increase in the values of TBARS

From patent publication US20160106708A1, “USE OF ANTIOXIDANTS FOR THE TREATMENT OF COGNITIVE AND BEHAVIOURAL DISORDERS IN INDIVIDUALS WITH FRAGILE X SYNDROME” (Servicio Andaluz de Salud, priority 2010, published 2016)
